Protein sequences, listed by entry. Tags and fused reporters are not part of them.
UniProt Q9NZQ7, whole entry: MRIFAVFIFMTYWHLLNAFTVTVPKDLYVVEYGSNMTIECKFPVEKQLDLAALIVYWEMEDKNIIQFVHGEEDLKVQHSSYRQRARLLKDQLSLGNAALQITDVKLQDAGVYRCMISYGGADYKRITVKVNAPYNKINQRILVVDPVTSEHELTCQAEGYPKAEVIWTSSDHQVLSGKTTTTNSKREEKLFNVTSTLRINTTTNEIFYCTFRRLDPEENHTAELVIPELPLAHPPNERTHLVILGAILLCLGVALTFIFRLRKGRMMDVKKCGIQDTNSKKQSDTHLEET

In ChEMBL document CHEMBL4834474, “Terphenyl-Based Small-Molecule Inhibitors of Programmed Cell Death-1/Programmed Death-Ligand 1 Protein-Protein Interaction” (J Med Chem, 2021):

Biological target: Programmed cell death 1 ligand 1 (Homo sapiens) (UniProt Q9NZQ7)
Assay: Binding affinity to human PD-L1 assessed as induction of protein dimerization by 1H NMR method

**Q.** Which Activity does the source give for `Cc1c(-c2ccc(CO)cc2)cccc1-c1ccc2c(c1)OCCO2` here?
**A.** The Activity was “Active”.

Active and inactive are the calls of the source. The rule behind the calls is not given here.
